Measured values taken from patent US20100322882A1, “SOLUBILIZING AGENTS FOR ACTIVE OR FUNCTIONAL ORGANIC COMPOUNDS” (ISP INVESTMENTS INC., priority 2006, published 2010).

Experiment: Solubility of solid organic sunscreens in solubilizers (25° C.)
Assay type: physicochemical

Substance: C12-15 alkyl benzoate [reference compound]
- Solubility of MBC in the solvent (solute 4-Methylbenzylidene camphor (MBC)): 28 wt. %
- Solubility of E-517 (Avobenzone) in the solvent (solute Avobenzone (E-517)): 15 wt. %
- Solubility of E-567 (Oxybenzone) in the solvent (solute Oxybenzone (E-567)): 17 wt. %
